## AlphaSeq binding of Ab-91 heavy chain variants to a spike HR2 peptide

Source: Engelhart et al. 2022 (doi:10.1038/s41597-022-01779-4), MIT Lincoln Laboratory and A-Alpha Bio; data file from the FLAb repository.

Target peptide (SARS-CoV-2 spike, HR2 region): PDVDLGDISGINAS

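Library AAYL51 holds single substitutions and randomly drawn double and triple substitutions in the CDRs. In AlphaSeq, yeast of one mating type display the scFv and yeast of the other type display the target. Mating (16 h, 30 °C) was followed by selection of diploids and sequencing of their barcodes. Each replicate has its own calibration line, from reference interactions of the BCL2 family. Mating was done three times.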

Parent scFv Ab-91: VL joined to VH by a (GGGGS)3 linker. Changes lie in the heavy chain CDRs alone.
VL: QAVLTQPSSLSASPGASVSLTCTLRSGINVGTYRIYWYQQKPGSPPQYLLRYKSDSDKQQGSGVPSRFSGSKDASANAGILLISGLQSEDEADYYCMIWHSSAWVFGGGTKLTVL
VH: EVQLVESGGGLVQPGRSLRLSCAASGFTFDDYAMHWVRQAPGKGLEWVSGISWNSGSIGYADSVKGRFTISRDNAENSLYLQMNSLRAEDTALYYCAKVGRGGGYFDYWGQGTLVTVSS

Substitutions are numbered in sequence along the VH above, starting at 1 (not Kabat). Scale: log10 of Kd in nM, estimated from mating counts; low values are strong binders. A pair that was not seen in that replicate is written "nd"; this usually means weak binding, but a binder can also be missed. Background: pairings of library AAYL51 with three empty control strains gave a value in 21% of cases (median 4.54, 5th percentile 3.26). Values in that range, when seen in few replicates, are hard to tell from nonspecific mating. For each scFv, signals with the empty controls are counted beside the result, with their mean in brackets.

changes	replicates, log10 nM	control signals
H35Y G50T D107N	nd nd nd	0 of 9
W53N R101T F106Y	nd nd nd	0 of 9
G56V S57K Y60R	nd nd nd	2 of 9 (4.78)
F27P M34P I58T	4.84 3.69 nd	2 of 9 (3.94)
D30C S57N D107G	nd nd nd	2 of 9 (4.44)
N54A R101Y Y105H	nd 4.32 nd	4 of 9 (4.46)
A61Y R101C	nd nd nd	0 of 9
D31E A33V I51W	nd nd nd	1 of 9 (3.33)
I58Q G100V Y105R	0.70 0.76 0.26	0 of 9
S52K S63E G100S	3.98 nd 4.37	4 of 9 (4.27)
G50W G103P D107Q	4.38 4.82 5.61	6 of 9 (5.30)
D30W R101N	2.12 1.71 1.29	0 of 9
S52D F106K	2.56 3.32 1.87	2 of 9 (3.17)
G59Y V99P	nd nd 5.16	2 of 9 (4.52)
N54L I58N Y105F	nd 4.28 4.35	3 of 9 (3.65)
H35E G59F Y105F	nd nd nd	0 of 9
G56M D62E F106Y	2.44 2.27 2.08	0 of 9
D31N N54W G103C	nd nd nd	1 of 9 (4.16)
G50W I58W S63I	nd nd nd	1 of 9 (3.64)
W53C G100D G103W	4.77 nd nd	2 of 9 (4.91)
I51E S55K G103P	nd nd nd	0 of 9
G26K Y32A M34A	nd nd nd	0 of 9
G50N D62R Y105M	nd nd nd	1 of 9 (4.35)
D30V I51E G103N	nd 3.58 nd	1 of 9 (4.30)
D30C S55D	nd nd nd	0 of 9
Y60A Y108M	2.40 2.38 2.25	5 of 9 (4.73)
Y32F G50M V64N	5.63 nd nd	4 of 9 (4.35)
F27L S55F G59H	3.09 nd nd	2 of 9 (3.76)
H35P S57Q I58Q	4.39 nd nd	4 of 9 (4.45)
F27Y D31Y G59Y	nd nd nd	0 of 9
A33E S55D K65Q	4.66 4.24 nd	3 of 9 (5.09)
F106Q D107T	3.77 4.38 3.30	2 of 9 (3.71)
M34D R101Q D107P	nd 5.45 2.62	4 of 9 (4.30)
K65S G103K	nd nd nd	0 of 9
T28E G50F Y60Q	nd nd nd	3 of 9 (4.94)
A33Y W53R Y60W	nd nd 4.33	0 of 9
S55P I58R K65G	4.61 nd nd	0 of 9
F27V M34Y S52Q	4.09 3.55 4.50	6 of 9 (4.53)
H35P I58R F106K	nd 4.68 nd	1 of 9 (4.26)
F29P W53P V64L	nd 3.98 4.25	3 of 9 (4.17)
W53H N54F S63P	4.40 5.65 3.64	8 of 9 (5.02)
G56R G103F Y108K	5.50 nd 4.33	2 of 9 (3.74)
D30F	2.03 2.07 1.88	6 of 9 (5.23)
A33W Y60R A61G	nd nd nd	0 of 9
I51L S52H	nd 4.42 5.02	4 of 9 (4.36)
S57K G104S Y108P	4.86 6.14 3.93	5 of 9 (5.02)
W53T I58K G102N	nd nd nd	0 of 9
Y32S I58L G104F	4.40 nd nd	0 of 9
D31W V99K G104V	nd nd nd	1 of 9 (3.18)
I51C I58G Y105I	nd nd nd	0 of 9
I58F	3.80 nd nd	2 of 9 (4.54)
G26Q S55D V64P	nd 5.96 4.73	1 of 9 (4.36)

Top 8 of the variants detected in all replicates, tightest first:

| changes | replicates, log10 nM | control signals |
|---|---|---|
| I58Q G100V Y105R | 0.70 0.76 0.26 | 0 of 9 |
| D30W R101N | 2.12 1.71 1.29 | 0 of 9 |
| D30F | 2.03 2.07 1.88 | 6 of 9 (5.23) |
| G56M D62E F106Y | 2.44 2.27 2.08 | 0 of 9 |
| Y60A Y108M | 2.40 2.38 2.25 | 5 of 9 (4.73) |
| S52D F106K | 2.56 3.32 1.87 | 2 of 9 (3.17) |
| F106Q D107T | 3.77 4.38 3.30 | 2 of 9 (3.71) |
| F27V M34Y S52Q | 4.09 3.55 4.50 | 6 of 9 (4.53) |